Literature values, collected in EP2179733A1, “PHARMACEUTICAL COMPOSITION COMBINING AN ANTIMICROBIAL AGENT AND A SELECTIVE ENKEPHALINASE ENZYME INHIBITOR, WHICH CAN BE USED TO CONTROL AND TREAT ACUTE BACTERIAL DIARRHOEA” (World Trade Import-Export, WTIE A.G., priority 2007, dated 2009).

Settings: orally administered

Compound: O=C(O)c1cn(C2CC2)c2cc(N3CCNCC3)c(F)cc2c1=O [Ciprofloxacin]
- time to maximum blood concentrations after delivery: one
